Laboratory results reported in patent publication US20250059164A1, “IRAK DEGRADERS AND USES THEREOF” (Kymera Therapeutics, Inc., priority 2023, published 2025).

Sequences of proteins named here, by UniProt entry; tags and fusion partners are left off.
UniProt Q9NWZ3, whole entry: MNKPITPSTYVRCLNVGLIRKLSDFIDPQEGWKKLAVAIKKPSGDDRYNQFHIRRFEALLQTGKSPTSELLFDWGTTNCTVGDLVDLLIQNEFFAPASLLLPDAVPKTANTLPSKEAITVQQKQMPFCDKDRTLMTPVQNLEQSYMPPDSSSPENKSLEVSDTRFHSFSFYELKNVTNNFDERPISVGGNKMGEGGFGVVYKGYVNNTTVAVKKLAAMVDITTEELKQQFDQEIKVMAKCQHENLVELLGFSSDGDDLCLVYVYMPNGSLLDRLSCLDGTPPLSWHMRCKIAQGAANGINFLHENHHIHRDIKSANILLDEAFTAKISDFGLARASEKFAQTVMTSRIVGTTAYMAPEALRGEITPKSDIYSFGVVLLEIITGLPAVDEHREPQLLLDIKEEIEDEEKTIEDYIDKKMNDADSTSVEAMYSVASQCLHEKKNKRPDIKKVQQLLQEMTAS

Target: IRAK4 (Homo sapiens, UniProt Q9NWZ3)
Experiment: IRAK4 MSD degradation in OCI-LY10
Conditions: read-out: IRAK4 degradation in OCI-LY10 at 24 hrs: DC50, OCI-LY10 cells, Meso Scale Discovery

## Cn1c(=O)n([C@@H]2CCC(=O)NC2=O)c2ccc(F)c([C@@H]3CCN(C[C@H]4CC[C@H](n5cc6cc(NC(=O)c7cncc(C#N)c7)c(C(C)(C)O)cc6n5)CC4)CC3(F)F)c21 (single isomer, unassigned)
  DC50: < 0.01 µM

## Cn1nc(C2CCC(=O)NC2=O)c2cccc(C3CCN(CC4CCC(n5cc6cc(NC(=O)c7cncc(C#N)c7)c(C(C)(C)O)cc6n5)CC4)CC3(F)F)c21 (centres unmarked)
  DC50: < 0.01 µM
